Results taken from ChEMBL document CHEMBL1131091, “Discovery of potent, achiral matrix metalloproteinase inhibitors” (J Med Chem, 1998).

Target: T1, Interstitial collagenase (Homo sapiens, UniProt P03956)
T1 sequence (P03956 whole entry): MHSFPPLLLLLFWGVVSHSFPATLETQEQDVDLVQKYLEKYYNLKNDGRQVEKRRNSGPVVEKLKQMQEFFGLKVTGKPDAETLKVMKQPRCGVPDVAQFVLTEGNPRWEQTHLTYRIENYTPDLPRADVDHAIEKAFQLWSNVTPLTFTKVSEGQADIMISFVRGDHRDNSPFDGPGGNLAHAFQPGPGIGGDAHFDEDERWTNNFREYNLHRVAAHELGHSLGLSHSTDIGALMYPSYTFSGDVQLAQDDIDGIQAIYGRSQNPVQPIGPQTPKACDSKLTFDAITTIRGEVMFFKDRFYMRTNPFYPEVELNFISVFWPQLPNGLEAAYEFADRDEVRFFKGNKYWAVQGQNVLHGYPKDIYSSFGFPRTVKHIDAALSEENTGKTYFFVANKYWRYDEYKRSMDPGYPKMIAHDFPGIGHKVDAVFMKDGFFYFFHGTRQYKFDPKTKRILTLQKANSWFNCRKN
Experiment: Inhibition of Matrix metalloprotease-1

- IC50: 49.5 nM
SMILES: COc1ccc(S(=O)(=O)N(Cc2cccnc2)[C@@H](C(=O)NO)C(C)C)cc1 [CGS-27023A]
